In patent US7893266B2, “Detection of cancer cells in vitro using sigma-2 receptor ligands as radiotracers” (Washington University, priority 2003, dated 2011) one finds uptake in tumors data, which are given here for one substance.

This data set concerns EMT-6 mammary tumors. The data set can be described thus: Comparison with [18F]FLT in tumor-bearing mice. The note with it: [18F]FLT at 1 hr, FIG. 9 top graph.

“(18)F-3′-fluoro-3′-deoxy-L-thymidine [[^18F]FLT, reference compound]”: the uptake in tumors entry is “high uptake in tumors”.
